Source: BindingDB's records for doi:10.1021/jm0009641 (University of Bristol, 2000)

Experiment: Displacement of radioligand [3H]- DAMGO on Opioid receptor mu 1 in monkey brain membranes

## COc1ccc2c3c1O[C@H]1C(=O)CC[C@@]4(NC(=O)/C=C/c5ccc(Cl)cc5)[C@@H](C2)N(CC2CC2)CC[C@]314 [1N-[4-cyclopropylmethyl-10-methoxy-14-oxo-(13R)-12-oxa-4-azapentacyclo[9.6.1.01,13.05,17.07,18]octadeca-7,9,11(18)-trien-17-yl]-3-(4-chlorophenyl)-(E)-2-propenamide]
  Ki: 0.46 nM
